Experimental data taken from publication PMC12560045 (Chemical Science, 2025).

Target: T1, recombinant human GCase (rhGCase) (Homo sapiens, UniProt P04062)
T1 sequence (P04062 40-536): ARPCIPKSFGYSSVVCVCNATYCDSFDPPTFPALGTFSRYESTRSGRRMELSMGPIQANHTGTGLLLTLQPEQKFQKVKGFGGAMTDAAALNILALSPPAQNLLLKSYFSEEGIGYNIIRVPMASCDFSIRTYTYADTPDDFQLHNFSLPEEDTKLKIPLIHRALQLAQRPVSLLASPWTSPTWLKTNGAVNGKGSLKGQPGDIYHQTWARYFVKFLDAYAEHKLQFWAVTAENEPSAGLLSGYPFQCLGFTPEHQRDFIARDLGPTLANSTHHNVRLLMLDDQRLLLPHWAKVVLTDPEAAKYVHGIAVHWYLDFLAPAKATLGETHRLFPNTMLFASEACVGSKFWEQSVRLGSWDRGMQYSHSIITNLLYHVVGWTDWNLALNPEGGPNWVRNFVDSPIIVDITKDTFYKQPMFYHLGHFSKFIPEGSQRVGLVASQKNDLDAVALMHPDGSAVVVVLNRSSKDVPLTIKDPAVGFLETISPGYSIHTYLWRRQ
Type: cell-based

O[C@H]1[C@H](O)CNC[C@@H]1C(F)F [AT3375]
IC50: 6 ± 3 nM
